Here are results for one compound from paper PMC3238500 (Archives of biochemistry and biophysics, 2011).

Sequences of proteins named here, by UniProt entry; tags and fusion partners are left off. Residues count along the entry.
UniProt Q2K340, 1-1154 R472S: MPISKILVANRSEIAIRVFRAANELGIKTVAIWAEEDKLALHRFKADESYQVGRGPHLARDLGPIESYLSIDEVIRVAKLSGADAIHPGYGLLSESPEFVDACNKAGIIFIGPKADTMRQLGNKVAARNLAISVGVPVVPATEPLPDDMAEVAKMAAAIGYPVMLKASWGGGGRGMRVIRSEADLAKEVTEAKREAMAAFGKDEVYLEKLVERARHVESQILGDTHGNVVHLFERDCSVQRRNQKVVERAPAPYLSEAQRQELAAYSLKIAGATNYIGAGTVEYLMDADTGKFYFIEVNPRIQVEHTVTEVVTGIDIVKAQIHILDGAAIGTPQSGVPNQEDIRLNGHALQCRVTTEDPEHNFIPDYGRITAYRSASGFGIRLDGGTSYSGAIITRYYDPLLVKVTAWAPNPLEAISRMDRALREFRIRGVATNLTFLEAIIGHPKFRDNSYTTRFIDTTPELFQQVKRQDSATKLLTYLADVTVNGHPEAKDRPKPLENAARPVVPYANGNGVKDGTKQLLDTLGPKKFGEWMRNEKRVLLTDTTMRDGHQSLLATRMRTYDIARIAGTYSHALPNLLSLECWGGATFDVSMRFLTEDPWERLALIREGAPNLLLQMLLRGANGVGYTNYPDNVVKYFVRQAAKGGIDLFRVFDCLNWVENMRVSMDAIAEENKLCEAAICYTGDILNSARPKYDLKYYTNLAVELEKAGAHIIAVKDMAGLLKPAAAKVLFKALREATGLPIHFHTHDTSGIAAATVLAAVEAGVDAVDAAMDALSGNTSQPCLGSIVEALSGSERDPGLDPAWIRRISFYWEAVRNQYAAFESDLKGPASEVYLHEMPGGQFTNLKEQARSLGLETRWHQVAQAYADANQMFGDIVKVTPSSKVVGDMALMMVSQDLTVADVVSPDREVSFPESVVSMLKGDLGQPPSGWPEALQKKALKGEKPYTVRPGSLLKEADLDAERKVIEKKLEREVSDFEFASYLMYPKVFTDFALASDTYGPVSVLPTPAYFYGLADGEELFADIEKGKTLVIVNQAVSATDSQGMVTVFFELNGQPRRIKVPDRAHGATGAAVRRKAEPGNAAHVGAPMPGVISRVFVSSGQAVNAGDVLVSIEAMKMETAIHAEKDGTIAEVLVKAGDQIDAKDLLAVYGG

Where two headings read alike, the source gives them in different places.

For assay [1], the target named is T1, pyruvate carboxylase (RePC) (Rhizobium etli, UniProt Q2K340). The assay is described as follows: biochemical. The settings on record: KT (activation constant), activation by MgTNP-ATP in the absence of acetyl CoA, fit to equation (i), Fig. 4c.
The subject of assay [2] is pyruvate carboxylase R472S mutant (RePC). The assay is described as follows: biochemical. Details: species or system Rhizobium etli.
Assay [3] addresses pyruvate carboxylase R472S mutant (RePC) (Rhizobium etli, UniProt Q2K340, R472S). The assay can be described thus: biochemical.
For assay [4], the target named is T1, pyruvate carboxylase (RePC). Format: binding.
The target is the same in assay [5]. The assay is described as follows: Stopped-flow fluorescence kinetics of MgTNP-ATP binding to pyruvate carboxylase.

The EC50 is the concentration at which the effect is half-maximal. Lower therefore signals a more potent agent. As usually defined, the Kd is the constant that tells how readily two partners part at equilibrium. A higher Kd goes with a looser complex. In the case of `Nc1ncnc2c1ncn2[C@@H]1O[C@H](COP(=O)(O)OP(=O)(O)OP(=O)(O)O)[C@H]2OC3(O[C@H]21)C([N+](=O)[O-])=CC(=[N+]([O-])[O-])C=C3[N+](=O)[O-]` (stereo partly shown) [MgTNP-ATP, 2′,3′-O-(2,4,6-trinitrophenyl) adenosine 5′-triphosphate], the EC50 in assay [1] was 21 ± 3 µM; in assay [3], 39 ± 8 µM. Moreover, the “KT of R472S mutant relative to wild-type enzyme” value in assay [2] is on record as 1.2-1.8 times. Further, the “fluorescence relative to MgTNP-ATP alone” value in assay [4] (5 μM MgTNP-ATP + 10 μM enzyme + 0.25 mM acetyl CoA) is reported as 188%. Further, in assay [4] (5 μM MgTNP-ATP + 10 μM enzyme + 0.25 mM acetyl CoA + 2.5 mM MgATP), the “residual fluorescence relative to MgTNP-ATP alone” value is reported as 164%. Further, the Kd is 18 ± 1 µM in assay [5] (K1 (dissociation constant, k-1/k1), fast phase, fit to eq (v)); 21 ± 1 µM in assay [5] (K2 (dissociation constant, k-2/k2), intermediate phase, fit to eq (ix)); 24 ± 12 µM in assay [5] (K2 (dissociation constant, k-2/k2), intermediate phase, fit to eq (x)). Moreover, the kon in assay [5] (read-out: k1, fast phase, fit to eq (v)) was 8.7e+06 ± 800000 M⁻¹ s⁻¹; in assay [5] (read-out: k2, intermediate phase, fit to eq (ix)), 500000 ± 20000 M⁻¹ s⁻¹; in assay [5] (read-out: k2, intermediate phase, fit to eq (x)), 580000 ± 30000 M⁻¹ s⁻¹. The koff in assay [5] (read-out: k-1, fast phase, fit to eq (v)) came out at 162 ± 19 s⁻¹; in assay [5] (read-out: k-1, fast phase, fit to eq (vi)), 244 ± 5 s⁻¹.
